# Patent US20230391863A1
# What was measured:
# [1] = target: human GDF-8 (myostatin) (human)
# human GDF-11 (human) = human GDF-11 (human) (UniProt O95390)
# human Activin B (human) = human Activin B (human) (UniProt P09529)
# human Activin A (human) = human Activin A (human) (UniProt A4D1W7)
"IC50; neutralisation of human GDF-8 (2 nM), Smad2/3 luciferase reporter cells (CAGA-luc), RLU against A109 (nM Log) [1] [nM]","IC50; neutralisation of human GDF-11 (2 nM), Smad2/3 luciferase reporter cells (CAGA-luc), RLU against A109 (nM Log) (human GDF-11 (human)) [nM]","IC50; neutralisation of human Activin B (2 nM), Smad2/3 luciferase reporter cells (CAGA-luc), RLU against A109 (nM Log) (human Activin B (human)) [nM]","IC50; neutralisation of human Activin A (2 nM), Smad2/3 luciferase reporter cells (CAGA-luc), RLU against A109 (nM Log) (human Activin A (human)) [nM]","IC50; neutralisation of human GDF-8 (2 nM), Smad2/3 luciferase reporter cells (CAGA-luc), RLU against A110 (nM Log) [1] [nM]","IC50; neutralisation of human GDF-11 (2 nM), Smad2/3 luciferase reporter cells (CAGA-luc), RLU against A110 (nM Log) (human GDF-11 (human)) [nM]","IC50; neutralisation of human Activin B (2 nM), Smad2/3 luciferase reporter cells (CAGA-luc), RLU against A110 (nM Log) (human Activin B (human)) [nM]","IC50; neutralisation of human Activin A (2 nM), Smad2/3 luciferase reporter cells (CAGA-luc), RLU against A110 (nM Log) (human Activin A (human)) [nM]",Substance
0.3,4.4,0.2,2,,,,,A109 (SEQ ID NOs: 39 & 17) (from UniProt P0DOX7 1-214)
,,,,1.4,5.3,0.8,4.5,A110 (SEQ ID NOs: 41 & 17) (from UniProt P0DOX7 1-214)
